Vd, t½α and t½β data for one substance are collected here from patent publication US20100249055A1, “CLOFARABINE PHOSPHOLIPID DERIVATIVES” (HEIDELBERG PHARMA AG, priority 2007, published 2010).

The nature of the data set: Oral bioavailability and pharmacokinetics in mice (plasma, mass spectroscopy). The note with it: WFI, experiment P06.0069.

For “[2-Chloro-9-(2′-deoxy-2′-fluoro-β-D-arabinofuranosyl)adenine]-5′-phosphoric acid-(2-decyloxy-3-dodecyloxy)propyl ester [Compound 1]”, for the setting “30 mg/kg iv”, the Vd worked out at 0.62 L/kg, the t½α is 0.2 h and the t½β worked out at 4.6 h. For the same substance, under “30 mg/kg po”, the Vd was 2.00 L/kg, the t½α amounted to 0.5 h and the t½β amounted to 4.2 h.
